Test results published in ChEMBL document CHEMBL1777785, “A novel approach for predicting P-glycoprotein (ABCB1) inhibition using molecular interaction fields” (J Med Chem, 2011).

Amino acid sequences for entries named in this document (tags omitted).
UniProt P08183, whole entry: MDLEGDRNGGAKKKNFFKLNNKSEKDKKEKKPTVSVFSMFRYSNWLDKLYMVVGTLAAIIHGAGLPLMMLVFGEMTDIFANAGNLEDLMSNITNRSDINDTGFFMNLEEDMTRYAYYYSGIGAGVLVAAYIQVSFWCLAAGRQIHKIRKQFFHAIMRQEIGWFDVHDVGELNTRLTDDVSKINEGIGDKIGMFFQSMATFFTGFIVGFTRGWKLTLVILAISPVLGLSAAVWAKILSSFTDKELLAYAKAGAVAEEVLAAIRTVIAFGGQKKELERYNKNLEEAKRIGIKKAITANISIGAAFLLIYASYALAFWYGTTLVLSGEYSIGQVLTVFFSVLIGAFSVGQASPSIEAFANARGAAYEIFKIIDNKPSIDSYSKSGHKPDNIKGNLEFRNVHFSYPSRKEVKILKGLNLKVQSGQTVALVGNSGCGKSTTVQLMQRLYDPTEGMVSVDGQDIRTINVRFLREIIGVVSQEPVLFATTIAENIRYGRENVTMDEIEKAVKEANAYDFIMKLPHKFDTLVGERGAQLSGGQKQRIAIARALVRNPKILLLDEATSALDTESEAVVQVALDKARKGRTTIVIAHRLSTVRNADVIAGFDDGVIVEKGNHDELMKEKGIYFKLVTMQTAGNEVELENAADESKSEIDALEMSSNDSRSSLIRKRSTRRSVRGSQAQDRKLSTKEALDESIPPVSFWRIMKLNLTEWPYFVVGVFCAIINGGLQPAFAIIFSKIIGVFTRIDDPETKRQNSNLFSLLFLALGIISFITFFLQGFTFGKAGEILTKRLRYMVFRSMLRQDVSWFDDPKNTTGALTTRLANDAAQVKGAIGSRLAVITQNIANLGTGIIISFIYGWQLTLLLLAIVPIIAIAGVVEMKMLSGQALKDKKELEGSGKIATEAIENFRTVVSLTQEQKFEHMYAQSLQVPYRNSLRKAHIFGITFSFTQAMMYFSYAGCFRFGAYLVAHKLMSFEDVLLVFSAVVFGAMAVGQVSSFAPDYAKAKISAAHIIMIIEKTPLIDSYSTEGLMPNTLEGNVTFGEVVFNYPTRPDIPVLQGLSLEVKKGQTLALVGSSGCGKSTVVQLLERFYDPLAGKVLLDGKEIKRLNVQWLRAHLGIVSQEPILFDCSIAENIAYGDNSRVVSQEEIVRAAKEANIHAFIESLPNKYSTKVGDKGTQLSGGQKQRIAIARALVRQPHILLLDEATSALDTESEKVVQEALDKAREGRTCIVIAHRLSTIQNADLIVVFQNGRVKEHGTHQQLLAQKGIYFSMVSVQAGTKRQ

Biological target: ATP-dependent translocase ABCB1 (Homo sapiens, UniProt P08183)

For `O=C1CCc2ccc(OCCCCN3CCN(c4cccc(Cl)c4Cl)CC3)cc2N1` [ARIPIPRAZOLE], the IC50 was 780 nM.
